The source of these data is paper PMC1802080.

For the assay, the target named is APP-BP1 (amyloid precursor protein binding protein-1), endogenous in rat brain (rat (endogenous in adult Sprague Dawley rat brain)) (UniProt Q9Z1A5). Nature of the assay: co-IP; rat brain membrane fraction proteins extracted in 20 mM Tris pH 8, 1 mM MgCl2, NaCl, 2% CHAPS; BP339 (anti-APP-BP1) prebound to protein G beads; blot with anti-PS1 (AB5308), anti-PS1-NTF or anti-nicastrin; controls beads alone or BP339 pre-immune antibody.

Take “Presenilin-1 (PS1), endogenous in rat brain, as precipitated or detected by the anti-PS1 loop antibody AB5308 (from UniProt P97887 1-468) (natural protein)”: the percent of PS1 associated with APP-BP1 was found to be 1%.
